# Results: PubChem BioAssay (EPA / NIEHS)
# Sequences of proteins named here, by UniProt entry; tags and fusion partners are left off.
# UniProt Q96RI1, whole entry: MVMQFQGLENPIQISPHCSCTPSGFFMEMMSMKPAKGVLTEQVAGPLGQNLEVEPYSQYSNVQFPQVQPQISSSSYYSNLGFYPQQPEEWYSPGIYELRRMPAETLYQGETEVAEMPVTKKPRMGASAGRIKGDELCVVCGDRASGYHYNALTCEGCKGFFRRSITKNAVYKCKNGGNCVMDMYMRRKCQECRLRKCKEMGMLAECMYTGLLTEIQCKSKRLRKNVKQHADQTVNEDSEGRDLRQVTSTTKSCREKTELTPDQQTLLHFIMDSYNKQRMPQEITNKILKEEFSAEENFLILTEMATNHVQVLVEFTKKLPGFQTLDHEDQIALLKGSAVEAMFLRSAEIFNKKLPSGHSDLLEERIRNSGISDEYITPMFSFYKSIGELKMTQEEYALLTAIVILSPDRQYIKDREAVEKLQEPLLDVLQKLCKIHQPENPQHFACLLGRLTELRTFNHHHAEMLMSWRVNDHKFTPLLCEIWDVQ
# UniProt P19793, whole entry: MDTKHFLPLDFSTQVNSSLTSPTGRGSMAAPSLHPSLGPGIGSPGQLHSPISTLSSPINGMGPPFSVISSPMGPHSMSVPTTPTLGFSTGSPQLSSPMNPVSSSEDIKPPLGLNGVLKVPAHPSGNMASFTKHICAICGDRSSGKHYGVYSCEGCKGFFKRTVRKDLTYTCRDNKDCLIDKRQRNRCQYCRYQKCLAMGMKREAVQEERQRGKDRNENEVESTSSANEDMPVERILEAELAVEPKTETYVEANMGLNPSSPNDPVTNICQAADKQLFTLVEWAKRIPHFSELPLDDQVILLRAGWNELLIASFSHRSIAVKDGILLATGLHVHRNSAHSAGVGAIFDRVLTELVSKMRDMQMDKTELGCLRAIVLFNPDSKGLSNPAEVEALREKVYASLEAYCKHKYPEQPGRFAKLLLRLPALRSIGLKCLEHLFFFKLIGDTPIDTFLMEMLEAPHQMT
# UniProt P37231, whole entry: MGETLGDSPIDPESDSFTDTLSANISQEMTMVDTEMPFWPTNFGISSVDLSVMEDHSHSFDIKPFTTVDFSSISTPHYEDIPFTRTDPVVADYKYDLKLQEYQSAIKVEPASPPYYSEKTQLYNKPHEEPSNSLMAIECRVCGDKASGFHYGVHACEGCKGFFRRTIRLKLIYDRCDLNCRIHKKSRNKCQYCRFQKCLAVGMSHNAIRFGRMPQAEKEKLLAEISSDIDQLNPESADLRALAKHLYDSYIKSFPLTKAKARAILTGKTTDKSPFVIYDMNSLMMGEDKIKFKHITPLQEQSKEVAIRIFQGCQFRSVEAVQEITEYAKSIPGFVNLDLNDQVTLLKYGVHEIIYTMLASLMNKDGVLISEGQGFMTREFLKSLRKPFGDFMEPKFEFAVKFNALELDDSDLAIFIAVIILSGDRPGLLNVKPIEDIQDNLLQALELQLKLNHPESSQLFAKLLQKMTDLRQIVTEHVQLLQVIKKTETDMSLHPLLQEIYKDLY
# UniProt P31652, whole entry: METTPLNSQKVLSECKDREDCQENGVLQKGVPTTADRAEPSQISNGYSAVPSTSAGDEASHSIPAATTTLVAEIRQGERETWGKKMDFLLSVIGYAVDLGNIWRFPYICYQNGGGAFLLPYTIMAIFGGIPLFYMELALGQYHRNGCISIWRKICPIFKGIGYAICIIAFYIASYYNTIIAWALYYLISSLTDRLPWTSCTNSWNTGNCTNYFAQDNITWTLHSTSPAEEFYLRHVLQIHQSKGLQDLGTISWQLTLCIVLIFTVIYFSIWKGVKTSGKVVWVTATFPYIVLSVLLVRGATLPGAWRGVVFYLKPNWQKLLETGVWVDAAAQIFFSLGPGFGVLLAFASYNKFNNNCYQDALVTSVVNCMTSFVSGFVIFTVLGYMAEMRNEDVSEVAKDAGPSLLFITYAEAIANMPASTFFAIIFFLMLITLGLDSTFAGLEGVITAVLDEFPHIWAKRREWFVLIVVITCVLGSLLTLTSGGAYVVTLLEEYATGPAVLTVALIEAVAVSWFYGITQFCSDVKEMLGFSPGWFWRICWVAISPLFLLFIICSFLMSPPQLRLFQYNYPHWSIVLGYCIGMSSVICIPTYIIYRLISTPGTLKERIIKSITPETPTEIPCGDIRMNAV
# UniProt Q92731, whole entry: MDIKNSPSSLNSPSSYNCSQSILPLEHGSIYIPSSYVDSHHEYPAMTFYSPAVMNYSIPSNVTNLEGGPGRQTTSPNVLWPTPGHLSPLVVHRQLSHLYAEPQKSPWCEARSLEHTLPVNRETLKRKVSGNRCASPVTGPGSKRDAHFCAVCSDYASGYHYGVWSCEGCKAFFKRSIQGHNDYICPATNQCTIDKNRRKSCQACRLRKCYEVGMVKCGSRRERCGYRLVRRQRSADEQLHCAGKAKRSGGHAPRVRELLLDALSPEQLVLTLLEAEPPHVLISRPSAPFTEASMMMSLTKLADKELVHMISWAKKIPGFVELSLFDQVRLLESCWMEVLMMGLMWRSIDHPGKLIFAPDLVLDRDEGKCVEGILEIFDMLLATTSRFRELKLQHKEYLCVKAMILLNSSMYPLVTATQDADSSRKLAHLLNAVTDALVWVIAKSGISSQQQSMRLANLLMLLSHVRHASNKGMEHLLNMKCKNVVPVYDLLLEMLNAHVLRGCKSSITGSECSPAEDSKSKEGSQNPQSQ
# UniProt P03372, whole entry: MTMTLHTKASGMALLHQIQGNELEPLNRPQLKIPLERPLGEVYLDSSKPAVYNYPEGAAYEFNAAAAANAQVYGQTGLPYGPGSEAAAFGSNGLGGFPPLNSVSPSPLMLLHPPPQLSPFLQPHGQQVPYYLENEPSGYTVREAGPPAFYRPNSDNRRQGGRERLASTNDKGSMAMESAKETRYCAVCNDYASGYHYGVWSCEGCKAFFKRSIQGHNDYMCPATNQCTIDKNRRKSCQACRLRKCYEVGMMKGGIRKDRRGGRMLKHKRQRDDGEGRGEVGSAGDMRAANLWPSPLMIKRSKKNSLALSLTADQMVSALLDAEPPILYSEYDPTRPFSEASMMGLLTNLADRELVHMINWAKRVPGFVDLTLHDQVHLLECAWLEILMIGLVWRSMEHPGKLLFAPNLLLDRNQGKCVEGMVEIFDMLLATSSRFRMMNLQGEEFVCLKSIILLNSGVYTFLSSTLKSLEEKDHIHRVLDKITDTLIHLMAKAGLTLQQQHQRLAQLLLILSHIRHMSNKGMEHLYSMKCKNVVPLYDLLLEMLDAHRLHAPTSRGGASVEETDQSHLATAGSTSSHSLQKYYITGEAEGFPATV
# UniProt Q01827, whole entry: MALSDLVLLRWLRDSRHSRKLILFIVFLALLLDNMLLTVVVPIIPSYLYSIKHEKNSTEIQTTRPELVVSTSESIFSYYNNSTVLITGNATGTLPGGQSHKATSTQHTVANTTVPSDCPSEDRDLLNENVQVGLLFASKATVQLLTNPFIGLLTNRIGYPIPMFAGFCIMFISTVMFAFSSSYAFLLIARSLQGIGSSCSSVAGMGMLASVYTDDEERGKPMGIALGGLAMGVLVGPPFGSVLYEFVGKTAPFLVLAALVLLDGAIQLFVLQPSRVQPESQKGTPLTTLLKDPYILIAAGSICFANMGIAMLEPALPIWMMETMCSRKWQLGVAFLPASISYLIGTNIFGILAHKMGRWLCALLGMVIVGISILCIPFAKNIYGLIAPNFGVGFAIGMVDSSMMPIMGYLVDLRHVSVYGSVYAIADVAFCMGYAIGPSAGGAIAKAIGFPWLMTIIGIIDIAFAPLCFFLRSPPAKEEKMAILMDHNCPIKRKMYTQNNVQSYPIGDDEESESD
# UniProt P10275, whole entry: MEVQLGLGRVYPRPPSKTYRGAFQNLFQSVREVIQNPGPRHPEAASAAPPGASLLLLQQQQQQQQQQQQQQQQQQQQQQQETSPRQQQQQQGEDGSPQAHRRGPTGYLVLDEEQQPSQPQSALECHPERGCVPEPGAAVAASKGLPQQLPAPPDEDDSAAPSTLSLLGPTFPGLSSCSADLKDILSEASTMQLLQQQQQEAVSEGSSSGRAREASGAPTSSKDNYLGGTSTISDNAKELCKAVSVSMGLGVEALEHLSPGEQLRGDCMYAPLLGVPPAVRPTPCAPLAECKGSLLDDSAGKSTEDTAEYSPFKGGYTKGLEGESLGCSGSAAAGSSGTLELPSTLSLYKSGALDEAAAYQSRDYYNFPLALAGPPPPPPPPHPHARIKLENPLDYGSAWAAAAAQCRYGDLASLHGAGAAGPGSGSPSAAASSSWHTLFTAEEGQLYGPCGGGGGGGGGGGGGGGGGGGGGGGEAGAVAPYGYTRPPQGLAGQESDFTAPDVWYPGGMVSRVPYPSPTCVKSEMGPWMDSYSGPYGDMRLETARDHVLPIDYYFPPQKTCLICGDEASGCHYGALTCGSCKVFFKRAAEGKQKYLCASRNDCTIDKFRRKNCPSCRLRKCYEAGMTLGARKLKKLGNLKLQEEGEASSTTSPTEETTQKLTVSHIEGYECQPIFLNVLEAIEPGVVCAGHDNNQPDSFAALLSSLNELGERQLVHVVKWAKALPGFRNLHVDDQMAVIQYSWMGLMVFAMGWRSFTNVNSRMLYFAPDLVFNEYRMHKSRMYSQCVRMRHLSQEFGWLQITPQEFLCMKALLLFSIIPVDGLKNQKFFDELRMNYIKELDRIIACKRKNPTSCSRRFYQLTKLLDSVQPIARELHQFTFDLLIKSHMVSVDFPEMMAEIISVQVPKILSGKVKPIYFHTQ
# Only a part is listed here, and it is no random draw. Records with an inconclusive call do not appear. Calls of active or inactive are those of the source. How the source made its calls, unless noted: active means hit-call score of the fitted dose curve at least 0.9, where 1 is the maximum; inconclusive means response in the unintended direction; inactive means score below 0.9.
# What was measured:
# [1] = molecular target: Bile acid receptor (Homo sapiens) (UniProt Q96RI1); test: OT_FXR_FXRSRC1_1440: Odyssey Thera (OT) 24-hour HEK293T Protein-Complementation Assay for Farnesoid X receptor/SRC-1 Co-activator (AID 2283384)
# Outline: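 Single endpoint, analysed for increased fluorescence against DMSO controls. HEK293T cells carrying FXR and SRC-1 linked to complementary reporter halves were exposed to chemicals for 24 h before reading.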
# [2] = molecular target: Retinoic acid receptor RXR-alpha (Homo sapiens) (UniProt P19793); test: OT_NURR1_NURR1RXRa_0480: Odyssey Thera (OT) 8-hour HEK293T Protein Complementation Assay for Nurr1/retinoid X receptor (RXR) (AID 2283385)
# Outline: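 Gain in fluorescent complementation signal over DMSO, measured 8 hours after chemical dosing of human kidney HEK293T cells, indicated enhanced Nurr1–RXRα association.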
# [3] = molecular target: Retinoic acid receptor RXR-alpha (Homo sapiens) (UniProt P19793); test: OT_NURR1_NURR1RXRa_1440: Odyssey Thera (OT) 24-hour HEK293T Protein Complementation Assay for Nurr1/retinoid X receptor (RXR) (AID 2283386)
# Outline: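 Cell-based binding reporter: HEK293T cells, 24 h exposure, fluorescence-detected fragment complementation, DMSO as baseline.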
# [4] = molecular target: Peroxisome proliferator-activated receptor gamma (Homo sapiens) (UniProt P37231); test: OT_PPARg_PPARgSRC1_0480: Odyssey Thera (OT) 8-hour Protein-Complementation Assay for Peroxisome Proliferator-activated Receptor Gamma / SRC-1 Co-activator (AID 2283387)
# Outline: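 Protein-fragment complementation in HEK293T: Venus YFP halves (residues 1-158, 159-239, mutated to IFP1/IFP2) fused to PPARg/SRC-1. 8 h exposure; N/C ratio at 488 nm; DMSO negative control.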
# [5] = molecular target: Peroxisome proliferator-activated receptor gamma (Homo sapiens) (UniProt P37231); test: OT_PPARg_PPARgSRC1_1440: Odyssey Thera (OT) 24-hour Protein-Complementation Assay for Peroxisome Proliferator-activated Receptor Gamma/ SRC-1 Co-activator (AID 2283388)
# Outline: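 HEK293T cells transiently transfected with PPARg and SRC-1 fused via (Gly4Ser)2 linker to split Venus YFP fragments (IFP1/IFP2) were dosed 24 h; fixed, Draq5-stained, imaged at 488/635 nm; nuclear/cytoplasmic fluorescence ratio scored versus DMSO baseline, gain-of-signal.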
# [6] = CEETOX_H295R_11DCORT: CeeTox H295R High-throughput Steroidogenesis Assay for 11-Deoxycortisol (11DCORT) (AID 2283432; active means hit-call score of the fitted dose curve at least 0.9, where 1 is the maximum; inactive means score below 0.9); details: actives raise or lower the signal
# Outline: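 Adrenal carcinoma line H295R, run per OECD 456 with minor changes, was forskolin-stimulated (10 uM, 48 h) before a 48 h chemical exposure at 0.1% DMSO. Secreted 11-deoxycortisol was quantified by HPLC-MS/MS.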
# [7] = CEETOX_H295R_OHPREG: CeeTox H295R High-throughput Steroidogenesis Assay for OH-Pregnenolone (OHPREG) (AID 2283434; active means hit-call score of the fitted dose curve at least 0.9, where 1 is the maximum; inactive means score below 0.9); details: actives raise or lower the signal
# Outline: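 Secreted 17alpha-hydroxypregnenolone measured by HPLC-MS/MS after liquid-liquid extraction. Human adrenal H295R cells received 48 h forskolin (10 uM) stimulation before 48 h chemical exposure at 0.1% final DMSO; MTT viability in same wells; bidirectional fit against DMSO.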
# [8] = CEETOX_H295R_OHPROG: CeeTox H295R High-throughput Steroidogenesis Assay for OH-Progesterone (OHPROG) (AID 2283435; active means hit-call score of the fitted dose curve at least 0.9, where 1 is the maximum; inactive means score below 0.9); details: actives raise or lower the signal
# Outline: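 Human adrenocortical H295R cells, passage 10 or lower, were treated with chemical for 48 h after forskolin priming, and hormone output in the medium was quantified by LC-MS/MS.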
# [9] = CEETOX_H295R_ANDR: CeeTox H295R High-throughput Steroidogenesis Assay for Androstenedione (ANDR) (AID 2283436; active means hit-call score of the fitted dose curve at least 0.9, where 1 is the maximum; inactive means score below 0.9); details: actives raise or lower the signal
# Outline: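 Medium from 48 h chemical-treated H295R adrenal cells was extracted with MTBE and androstenedione measured by LC-MS/MS. Activity was fit in both directions relative to DMSO. Cytotoxic concentrations were re-tested after dilution until MTT viability reached ≥70%.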
# [10] = CEETOX_H295R_CORTIC: CeeTox H295R High-throughput Steroidogenesis Assay for Corticosterone (CORTIC) (AID 2283437; active means hit-call score of the fitted dose curve at least 0.9, where 1 is the maximum; inactive means score below 0.9); details: actives raise or lower the signal
# Outline: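 Medium corticosterone was quantified by tandem mass spectrometry following 48 hours of chemical exposure (0.1% DMSO) in human H295R cells previously stimulated 48 hours with 10 uM forskolin. Viability checked by MTT; chemicals diluted and retested when viability fell below 70%.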
# [11] = CEETOX_H295R_CORTISOL: CeeTox H295R High-throughput Steroidogenesis Assay for Cortisol (AID 2283438; active means hit-call score of the fitted dose curve at least 0.9, where 1 is the maximum; inactive means score below 0.9;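 further: cortisol secreted into medium quantified by LC-MS/MS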); details: actives raise or lower the signal
# Outline: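 Steroidogenesis in H295R, per modified OECD 456: 48 h forskolin (10 uM), then 48 h exposure, 0.1% DMSO. Cortisol by extraction and tandem MS; viability by MTT (570/650 nm); cytotoxic chemicals diluted and re-tested.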
# [12] = molecular target: rat Serotonin Transporter (SERT), Slc6a4 (gene 25553) (UniProt P31652); test: NVS_TR_rSERT: NovaScreen (NVS) Transporter Assay for rat Serotonin Transporter (SERT) (AID 2283375)
# Outline: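 Rat forebrain membranes were incubated with test chemical for 1 hour; radioligand binding to SERT was measured by filter-based scintillation counting. Primary screen ran in duplicate at 25 uM, with actives followed up in concentration series; DMSO served as negative control.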
# [13] = molecular target: Estrogen receptor beta (Homo sapiens) (UniProt Q92731); test: OT_ER_ERbERb_1440: Odyssey Thera (OT) 24-hour HEK293T Protein-Complementation Assay for Estrogen Receptor-beta/-beta Homodimer (AID 2283380);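 further: scored as signal increase over DMSO baseline for both agonists and antagonists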
# Outline: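 Fluorescence increase, nuclear for agonists or whole-cell for antagonists, relative to DMSO vehicle, quantified by laser scanning cytometer after fixation and Draq5 staining. Readout from 24 h treatment of HEK293T cells carrying complementation-paired ER beta LBD (aa 310-547).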
# [14] = molecular target: Estrogen receptor (Homo sapiens) (UniProt P03372); test: OT_ERa_GFPERaERE_0480: Odyssey Thera (OT) 8-hour HeLa Transcription Induction Assay for Estrogen Receptor (AID 2283381; active means hit-call score of the fitted dose curve at least 0.9, where 1 is the maximum; inactive means score below 0.9)
# Outline: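 An 8 h HeLa transcription-induction format with a GFP reporter under ERE control, read by fluorescence microscopy; single endpoint fitted positively with DMSO as baseline.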
# [15] = molecular target: Estrogen receptor (Homo sapiens) (UniProt P03372); test: OT_ERa_GFPERaERE_0120: Odyssey Thera (OT) 2-hour HeLa Transcription Induction Assay for Estrogen Receptor (AID 2283382)
# Outline: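 Two-hour compound treatment of HeLa cells preceded microscopy imaging of an inducible fluorescent reporter. Image-based quantification gave one endpoint, analysed for signal increase relative to DMSO controls.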
# [16] = molecular target: Norway rat Vesicular Monoamine Transporter (VMAT2), neurotransmitter transporter, Slc18a2 (gene 25549) (UniProt Q01827); test: NVS_TR_rVMAT2: NovaScreen (NVS) Transporter Assay for Norway rat Vesicular Monoamine Transporter (VMAT2), neurotransmitter transporter (AID 2283376);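 further: actives lower the bound radioligand signal below the DMSO level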
# Outline: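 Using rat forebrain membranes, specific radioligand binding to VMAT2 was measured by filtration and scintillation counting after 1 hour. Chemicals screened at 25 uM in duplicate, actives retested in concentration series, DMSO baseline.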
# [17] = molecular target: Peroxisome proliferator-activated receptor gamma (Homo sapiens) (UniProt P37231); test: NVS_NR_hPPARg: NovaScreen (NVS) Nuclear Receptor Binding Assay for human Peroxisome Proliferator-activated Receptor gamma (PPARg) (AID 2283370)
# Outline: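 Cell-free binding to extracted PPARg protein, read by fluorescence polarization 2 h after dosing; loss of signal relative to DMSO baseline marks displacement. Primary screen in duplicate at 25 uM, actives retested in concentration series.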
# [18] = molecular target: Agonist Androgen Response Element (ARE), AR (gene 367) (UniProt P10275); test: OT_AR_ARELUC_AG_1440: Odyssey Thera (OT) 24-hour CHO-K1 Luciferase Assay for Agonist Androgen Response Element (ARE) (AID 2283379)
# Outline: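 Readout: luciferase bioluminescence from CHO-K1 ARE-luc cells, measured 24 h post-dosing; agonism = increased mean luminescence vs DMSO controls, fitted in positive direction.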
# [19] = molecular target: Estrogen receptor beta (Homo sapiens) (UniProt Q92731); test: OT_ER_ERbERb_0480: Odyssey Thera (OT) 8-hour HEK293T Protein-Complementation Assay for Estrogen Receptor-beta/-beta Homodimer (AID 2283357);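 further: active means signal gain over DMSO baseline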
# Outline: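 ER-beta LBD homodimer PCA stably expressed in HEK293T; 8 h compound exposure, then formaldehyde fixation and Draq5 staining. Gain in nuclear/cytoplasmic fluorescence intensity versus DMSO vehicle, read on laser scanning cytometer.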
# [20] = molecular target: Bile acid receptor (Homo sapiens) (UniProt Q96RI1); test: OT_FXR_FXRSRC1_0480: Odyssey Thera (OT) 8-hour HEK293T Protein-Complementation Assay for Farnesoid X receptor/SRC-1 Co-activator (AID 2283383)
# Outline: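 Readings were taken 8 h after dosing HEK293T cells in a split-reporter complementation format pairing FXR with SRC-1. Increased fluorescence relative to DMSO-treated wells defined activity.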
smiles,measurement,setting,value
Cc1c([N+](=O)[O-])cccc1[N+](=O)[O-],outcome,[1],inactive
same,outcome,[2],inactive
same,outcome,[3],inactive
same,outcome,[4],inactive
same,outcome,[5],inactive
same,outcome,[6],inactive
same,outcome,[7],inactive
same,outcome,[8],inactive
same,outcome,[9],inactive
same,outcome,[10],inactive
same,outcome,[11],inactive
CC(C)OP(C)(=O)OC(C)C,AC50,[12],active: 9.8 µM
same,outcome,[13],inactive
same,outcome,[14],inactive
same,outcome,[15],inactive
same,outcome,[2],inactive
same,outcome,[3],inactive
same,outcome,[4],inactive
same,outcome,[5],inactive
Cc1ccc([N+](=O)[O-])cc1[N+](=O)[O-],AC50,[16],active: 15.9 µM
same,outcome,[2],inactive
same,outcome,[3],inactive
same,outcome,[4],inactive
same,outcome,[5],inactive
Cc1cccc([N+](=O)[O-])c1[N+](=O)[O-],outcome,[17],inactive
same,outcome,[18],inactive
same,outcome,[2],inactive
same,outcome,[3],inactive
same,outcome,[4],inactive
same,outcome,[5],inactive
same,outcome,[6],inactive
same,outcome,[7],inactive
same,outcome,[8],inactive
same,outcome,[9],inactive
same,outcome,[10],inactive
same,outcome,[11],inactive
Cc1ccc([N+](=O)[O-])c([N+](=O)[O-])c1,outcome,[6],inactive
same,outcome,[7],inactive
same,outcome,[8],inactive
same,outcome,[9],inactive
same,outcome,[10],inactive
same,outcome,[11],inactive
O=[N+]([O-])OCC(CO[N+](=O)[O-])(CO[N+](=O)[O-])CO[N+](=O)[O-],outcome,[19],inactive
same,outcome,[17],inactive
same,outcome,[18],inactive
same,outcome,[13],inactive
same,outcome,[14],inactive
same,outcome,[15],inactive
same,outcome,[20],inactive
same,outcome,[3],inactive
same,outcome,[4],inactive
same,outcome,[5],inactive
COP(C)(=O)OC,outcome,[19],inactive
same,outcome,[13],inactive
same,outcome,[14],inactive
same,outcome,[15],inactive
same,outcome,[3],inactive
same,outcome,[4],inactive
same,outcome,[5],inactive
O=[N+]([O-])c1cccc([N+](=O)[O-])c1,outcome,[19],inactive
same,outcome,[13],inactive
same,outcome,[14],inactive
same,outcome,[15],inactive
same,outcome,[20],inactive
same,outcome,[1],inactive
same,outcome,[2],inactive
same,outcome,[3],inactive
same,outcome,[4],inactive
same,outcome,[5],inactive
